Test system: T1, CLK
T1 construct: fused on or other part: vendor's panel tag (DNA tag or T7 phage of the KINOMEscan format)
Assay: scanMAX panel and Kd follow-up
Format: binding
Settings: 1 μM

`CC(C)c1c2cc(-c3ccnc(N[C@H]4CC[C@H](N)C4)n3)ccc2nn1C` [Compound I-2, (1S,3S)-[3-[4-(3-isopropyl-2-methylindazol-5-yl)pyrimidin-2-yl]aminocyclopentan-1-yl]-1,3-diamine] was tested, and the “% of control activity” value was 0-1%.

Source: patent publication US20240150322A1, “CDK9 Inhibitors” (Biolexis Therapeutics, Inc., priority 2022, published 2024)
